Experimental data from US10562947B2, “Compositions and methods for preventing or treating diseases, conditions or processes characterized by aberrant fibroblast proliferation and extracellular matrix deposition” (MOERAE MATRIX, INC., priority 2011, dated 2020).

Key:
Assay in all cases: Kinase Profiling Assay
Assay type in all cases: biochemical
Conditions in all cases: 100 μM peptide
[1] = molecular target: ACK1(h) (Homo sapiens, UniProt Q07912)
Procedure: (§1) Every kinase activity measurement was conducted in duplicate.
(§2) In addition to determining the IC50 of the compound, the specificity of MK2 inhibitory peptides was assessed by examining activities of all 266 human kinases available for testing in the Millipore kinase profiling service (Table 1).

[2] = molecular target: BTK(h) (Homo sapiens, UniProt Q06187)
Procedure: as §1, §2

[3] = molecular target: CK1γ1(h) (Homo sapiens, UniProt Q9HCP0)
Procedure: as §1, §2

[4] = molecular target: CK2α2(h) (Homo sapiens, UniProt P19784)
Procedure: as §1, §2

[5] = molecular target: CLK2(h) (Homo sapiens, UniProt P49760)
Procedure: as §1, §2

[6] = molecular target: FAK(h) (Homo sapiens, UniProt Q05397)
Procedure: as §1, §2

[7] = molecular target: FGFR2(N549H)(h) (Homo sapiens, UniProt P21802, N549H)
Procedure: as §1, §2

[8] = molecular target: FGFR3(h) (Homo sapiens, UniProt P22607)
Procedure: as §1, §2

[9] = molecular target: T1, GRK5(h) (Homo sapiens, UniProt P34947)
T1 construct: purchased Millipore
Procedure: as §1, §2

[10] = molecular target: T2, IGF-1R(h) (Homo sapiens, UniProt P08069)
T2 construct: purchased Millipore
Procedure: as §1, §2

[11] = molecular target: T3, JAK3(h) (Homo sapiens, UniProt P52333)
T3 construct: purchased Millipore
T3 sequence (P52333 1-1124): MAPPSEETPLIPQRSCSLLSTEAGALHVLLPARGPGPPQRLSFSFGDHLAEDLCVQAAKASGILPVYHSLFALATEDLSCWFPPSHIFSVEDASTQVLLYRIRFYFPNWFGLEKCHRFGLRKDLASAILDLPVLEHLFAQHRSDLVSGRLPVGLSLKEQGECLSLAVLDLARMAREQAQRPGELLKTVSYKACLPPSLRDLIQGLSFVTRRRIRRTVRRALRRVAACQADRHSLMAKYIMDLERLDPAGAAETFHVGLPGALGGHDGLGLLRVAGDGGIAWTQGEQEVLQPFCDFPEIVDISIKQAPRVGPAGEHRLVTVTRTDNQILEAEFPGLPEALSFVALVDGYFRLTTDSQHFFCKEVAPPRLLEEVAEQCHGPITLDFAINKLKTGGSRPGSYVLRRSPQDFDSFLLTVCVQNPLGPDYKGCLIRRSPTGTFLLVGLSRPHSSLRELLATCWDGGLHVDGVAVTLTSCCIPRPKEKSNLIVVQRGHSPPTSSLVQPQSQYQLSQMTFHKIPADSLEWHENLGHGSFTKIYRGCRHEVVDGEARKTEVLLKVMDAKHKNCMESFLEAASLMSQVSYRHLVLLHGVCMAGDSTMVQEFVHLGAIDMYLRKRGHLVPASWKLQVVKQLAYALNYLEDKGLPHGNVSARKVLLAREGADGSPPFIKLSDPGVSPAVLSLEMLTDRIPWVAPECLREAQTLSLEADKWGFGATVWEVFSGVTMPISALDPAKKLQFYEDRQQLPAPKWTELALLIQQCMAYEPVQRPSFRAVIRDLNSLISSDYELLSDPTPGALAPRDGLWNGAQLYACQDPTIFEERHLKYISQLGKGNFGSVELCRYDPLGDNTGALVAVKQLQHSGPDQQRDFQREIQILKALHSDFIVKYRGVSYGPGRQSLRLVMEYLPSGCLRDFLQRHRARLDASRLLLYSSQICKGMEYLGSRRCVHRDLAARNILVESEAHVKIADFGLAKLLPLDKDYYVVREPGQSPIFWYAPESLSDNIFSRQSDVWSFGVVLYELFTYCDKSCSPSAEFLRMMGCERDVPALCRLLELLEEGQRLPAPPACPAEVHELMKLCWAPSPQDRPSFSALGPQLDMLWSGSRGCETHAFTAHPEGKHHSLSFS
Procedure: as §1, §2

[12] = molecular target: MAPK1(h) (Homo sapiens, UniProt P27361)
Procedure: as §1, §2

[13] = molecular target: MRCKα(h) (Homo sapiens, UniProt Q5VT25)
Procedure: as §1, §2

[14] = molecular target: Met(Y1248D)(h) (Homo sapiens, UniProt P08581, Y1230D)
Procedure: as §1, §2

[15] = molecular target: Met(Y1248H)(h) (Homo sapiens, UniProt P08581, Y1230H)
Procedure: as §1, §2

[16] = molecular target: PAK6(h) (Homo sapiens, UniProt Q9NQU5)
Procedure: as §1, §2

[17] = molecular target: T4, PAR-1Bα(h) (Homo sapiens, UniProt Q7KZI7)
T4 sequence (Q7KZI7 1-725 isoform Q7KZI7-4): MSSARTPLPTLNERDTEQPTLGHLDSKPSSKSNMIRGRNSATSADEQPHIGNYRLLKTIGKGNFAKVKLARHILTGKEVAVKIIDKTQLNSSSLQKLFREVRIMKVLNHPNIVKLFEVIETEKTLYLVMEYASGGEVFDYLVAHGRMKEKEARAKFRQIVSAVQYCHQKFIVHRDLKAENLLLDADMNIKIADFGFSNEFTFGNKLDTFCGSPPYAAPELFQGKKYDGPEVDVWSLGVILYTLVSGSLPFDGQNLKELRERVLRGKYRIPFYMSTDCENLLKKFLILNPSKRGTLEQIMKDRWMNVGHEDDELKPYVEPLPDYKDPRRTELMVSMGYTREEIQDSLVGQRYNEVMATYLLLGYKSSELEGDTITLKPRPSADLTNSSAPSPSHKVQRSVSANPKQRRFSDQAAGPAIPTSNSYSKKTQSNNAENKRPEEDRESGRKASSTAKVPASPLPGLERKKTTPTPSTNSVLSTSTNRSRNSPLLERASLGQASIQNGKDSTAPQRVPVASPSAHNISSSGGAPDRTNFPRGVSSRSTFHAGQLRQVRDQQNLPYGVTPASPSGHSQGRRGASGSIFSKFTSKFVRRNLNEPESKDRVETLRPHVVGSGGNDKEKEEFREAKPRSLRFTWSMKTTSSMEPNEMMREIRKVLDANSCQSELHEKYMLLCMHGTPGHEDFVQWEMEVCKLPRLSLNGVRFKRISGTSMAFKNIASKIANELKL
Procedure: as §1, §2

[18] = molecular target: PDGFRα(D842V)(h) (Homo sapiens, UniProt P16234, D842V)
Procedure: as §1, §2

[19] = molecular target: PKA(h) (Homo sapiens, UniProt P17612)
Procedure: as §1, §2

[20] = molecular target: PKCη(h) (Homo sapiens, UniProt P24723)
Procedure: as §1, §2

[21] = molecular target: T5, Plk1(h) (Homo sapiens, UniProt P53350)
T5 construct: purchased Millipore (IC50 Profiler Express service)
Procedure: as §1, §2

[22] = molecular target: Snk(h) (Homo sapiens, UniProt Q9NYY3)
Procedure: as §1, §2

[23] = molecular target: TLK2(h) (Homo sapiens, UniProt Q86UE8)
Procedure: as §1, §2

[24] = molecular target: Tie2(R849W)(h) (Homo sapiens, UniProt Q02763, R849W)
Procedure: as §1, §2

[25] = molecular target: c-RAF(h) (Homo sapiens, UniProt P04049)
Procedure: as §1, §2

[26] = molecular target: cKit(V560G)(h) (Homo sapiens, UniProt P10721, V560G)
Procedure: as §1, §2

Sequence: FAKLAARLYRKALARQLGVAA [MMI-0300]
- ACK1(h) % activity [1]: 104%
- BTK(h) % activity [2]: 102%
- CK1γ1(h) % activity [3]: 111%
- CK2α2(h) % activity [4]: 105%
- CLK2(h) % activity [5]: 103%
- FAK(h) % activity [6]: 111%
- FGFR2(N549H)(h) % activity [7]: 116%
- FGFR3(h) % activity [8]: 102%
- GRK5(h) % activity [9]: 136%
- IGF-1R(h) % activity [10]: 119%
- JAK3(h) % activity [11]: 121%
- MAPK1(h) % activity [12]: 107%
- MRCKα(h) % activity [13]: 104%
- Met(Y1248D)(h) % activity [14]: 102%
- Met(Y1248H)(h) % activity [15]: 117%
- PAK6(h) % activity [16]: 104%
- PAR-1Bα(h) % activity [17]: 113%
- PDGFRα(D842V)(h) % activity [18]: 114%
- PKA(h) % activity [19]: 119%
- PKCη(h) % activity [20]: 103%
- Plk1(h) % activity [21]: 115%
- Snk(h) % activity [22]: 114%
- TLK2(h) % activity [23]: 114%
- Tie2(R849W)(h) % activity [24]: 117%
- c-RAF(h) % activity [25]: 107%
- cKit(V560G)(h) % activity [26]: 102%
